Test results: PubChem BioAssay (NCI)
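Step 1: Grow cells in 96-well plates. Step 2: Expose to compound for 48 hours at 5 concentrations. Step 3: Interpolate endpoints linearly; if unreached, use highest concentration. The concentration for full growth arrest is given as TGI.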

Legend:
Experiment in all cases: NCI tumour cell line growth inhibition, 48 h
OVCAR-3 ovarian = tested on: OVCAR-3 ovarian
TK-10 renal = tested on: TK-10 renal
RPMI-8226 leukemia = tested on: RPMI-8226 leukemia
NCI-H226 lung = tested on: NCI-H226 lung
HT29 colon = tested on: HT29 colon
PC-3 prostate = tested on: PC-3 prostate
UACC-62 melanoma = tested on: UACC-62 melanoma
A549 NSCLC = tested on: A549 NSCLC
T-47D breast = tested on: T-47D breast
K-562 leukemia = tested on: K-562 leukemia
DU-145 prostate = tested on: DU-145 prostate
HCT-15 colon = tested on: HCT-15 colon
NCI-H23 lung = tested on: NCI-H23 lung
UO-31 renal = tested on: UO-31 renal
OVCAR-5 ovarian = tested on: OVCAR-5 ovarian
SK-MEL-5 melanoma = tested on: SK-MEL-5 melanoma
MDA-MB-231 breast = tested on: MDA-MB-231 breast
OVCAR-8 ovarian = tested on: OVCAR-8 ovarian
SK-MEL-2 melanoma = tested on: SK-MEL-2 melanoma
HOP-92 NSCLC = tested on: HOP-92 NSCLC
SF-268 CNS = tested on: SF-268 CNS
MALME-3M melanoma = tested on: MALME-3M melanoma
COLO 205 colon = tested on: COLO 205 colon
HL-60(TB) leukemia = tested on: HL-60(TB) leukemia
SN12C renal = tested on: SN12C renal
OVCAR-4 ovarian = tested on: OVCAR-4 ovarian
SR leukemia = tested on: SR leukemia
NCI-H522 lung = tested on: NCI-H522 lung
HOP-62 NSCLC = tested on: HOP-62 NSCLC
SNB-19 CNS = tested on: SNB-19 CNS
SK-MEL-28 melanoma = tested on: SK-MEL-28 melanoma
M14 melanoma = tested on: M14 melanoma
U251 CNS = tested on: U251 CNS
SW-620 colon = tested on: SW-620 colon
MOLT-4 leukemia = tested on: MOLT-4 leukemia
SK-OV-3 ovarian = tested on: SK-OV-3 ovarian
MDA-N = tested on: MDA-N
IGROV1 ovarian = tested on: IGROV1 ovarian
KM12 colon = tested on: KM12 colon
786-0 renal = tested on: 786-0 renal
MDA-MB-435 = tested on: MDA-MB-435
NCI/ADR-RES ovarian = tested on: NCI/ADR-RES ovarian
SF-295 CNS = tested on: SF-295 CNS
ACHN renal = tested on: ACHN renal
HCT-116 colon = tested on: HCT-116 colon
A498 renal = tested on: A498 renal
BT-549 breast = tested on: BT-549 breast
CAKI-1 renal = tested on: CAKI-1 renal
EKVX NSCLC = tested on: EKVX NSCLC
HS 578T breast = tested on: HS 578T breast
SF-539 CNS = tested on: SF-539 CNS
UACC-257 melanoma = tested on: UACC-257 melanoma

Measured: TGI

CN(C(=O)[C@@H](N)c1ccccc1)[C@H]1CCCC[C@@H]1N1CCCC1
> 100 µM: all assays above
